System: TIA (transient ischemic attack) symptoms

C[N+]1(C)CCC(OC(=O)C(O)(c2ccccc2)C2CCCC2)C1 (stereo not drawn)
effect on oral and pharyngeal secretions (2 mg glycopyrrolate along with midazolam 2.5 mg daily): drying up the oral and pharyngeal secretions
swallowing on the second night (5 mg midazolam pump with 2 mg glycopyrrolate): could swallow their own saliva
clinical state the next day (first night 5 mg midazolam and 2 mg glycopyrrolate along with 35% oxygen): sitting talking to relatives, mentating better but could not swallow their own saliva

From patent US9433608B2 (priority 2013, dated 2016)
